In this assay the target is human neurotensin receptor 1 (hNTS1R) (human) (UniProt P30989).

By UniProt entry, the sequences of proteins in these tests, tags left out.
UniProt P30989, whole entry: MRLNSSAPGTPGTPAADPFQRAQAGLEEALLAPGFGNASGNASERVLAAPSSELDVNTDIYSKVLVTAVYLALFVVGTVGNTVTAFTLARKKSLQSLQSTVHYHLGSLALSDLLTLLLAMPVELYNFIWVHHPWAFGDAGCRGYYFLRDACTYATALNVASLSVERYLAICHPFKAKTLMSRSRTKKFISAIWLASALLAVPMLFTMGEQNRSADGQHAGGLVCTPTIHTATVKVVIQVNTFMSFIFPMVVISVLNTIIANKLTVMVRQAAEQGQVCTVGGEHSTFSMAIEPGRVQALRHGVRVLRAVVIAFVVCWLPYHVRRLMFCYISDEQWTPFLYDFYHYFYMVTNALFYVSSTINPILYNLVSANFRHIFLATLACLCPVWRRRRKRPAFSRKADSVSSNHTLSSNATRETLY

Neurotensin (8–13) (peptide) displayed a pEC50 of activation of the Gαq/PLC-β3 split-luciferase sensor in live HEK293T cells expressing hNTS1R of 8.79 pEC50.

The record behind these values is PMC6249299, “A split luciferase-based probe for quantitative proximal determination of Gαq signalling in live cells” (Scientific Reports, 2018).
